Measurements taken from ChEMBL document CHEMBL2203137, “Design, synthesis, biochemical studies, cellular characterization, and structure-based computational studies of small molecules targeting the urokinase receptor” (Bioorg Med Chem, 2012).

Protein sequences, listed by entry. Tags and fused reporters are not part of them.
UniProt Q03405, whole entry: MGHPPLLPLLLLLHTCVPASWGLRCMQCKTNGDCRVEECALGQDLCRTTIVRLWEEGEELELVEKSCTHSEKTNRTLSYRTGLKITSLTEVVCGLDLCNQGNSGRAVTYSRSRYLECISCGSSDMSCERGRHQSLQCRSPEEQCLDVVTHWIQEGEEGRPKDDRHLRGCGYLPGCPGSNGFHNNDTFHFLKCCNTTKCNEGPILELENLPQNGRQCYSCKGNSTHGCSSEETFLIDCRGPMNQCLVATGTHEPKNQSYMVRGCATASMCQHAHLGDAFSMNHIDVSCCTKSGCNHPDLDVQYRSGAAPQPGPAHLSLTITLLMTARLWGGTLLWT

Target: Urokinase plasminogen activator surface receptor (Homo sapiens, UniProt Q03405)
Experiment: Binding affinity to human recombinant soluble urokinase receptor (1 to 277) expressed in Drosophila S2 cells after 15 mins by fluorescence polarization assay
Type: single protein

For `Cc1cccc(-c2cc(NCC(C)C)c3noc4c3c2C(=O)c2ccccc2-4)c1`, the Activity was “inactive”.
In the case of `COC(=O)c1ccc(-c2cc(N3CCCC(C)C3)c3noc4c3c2C(=O)c2ccccc2-4)cc1` (configuration not stated), the Kb is reported as 400 nM.

The source made the active and inactive calls. The rule behind the calls is not given here.
